Data from BindingDB's records for doi:10.1016/s0006-2952(97)00631-x (Roche Bioscience, 1998).

Chains of the proteins cited; added tags and fusions are not shown.
UniProt Q1HL33, whole entry: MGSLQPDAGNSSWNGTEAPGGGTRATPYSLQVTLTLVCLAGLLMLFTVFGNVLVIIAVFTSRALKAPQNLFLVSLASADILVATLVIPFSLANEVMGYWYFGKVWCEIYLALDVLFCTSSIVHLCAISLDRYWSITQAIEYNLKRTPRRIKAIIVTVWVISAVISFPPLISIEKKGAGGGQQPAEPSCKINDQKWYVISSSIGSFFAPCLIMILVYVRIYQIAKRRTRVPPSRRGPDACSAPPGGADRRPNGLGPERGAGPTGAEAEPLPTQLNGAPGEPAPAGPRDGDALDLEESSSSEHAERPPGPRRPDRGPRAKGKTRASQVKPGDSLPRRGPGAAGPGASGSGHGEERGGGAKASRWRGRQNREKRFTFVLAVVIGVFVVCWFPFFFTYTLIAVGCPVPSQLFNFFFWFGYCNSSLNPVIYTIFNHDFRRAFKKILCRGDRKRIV

biological target: Alpha-2A adrenergic receptor (Mus musculus, UniProt Q1HL33)

Structure (SMILES)	Ki [nM]
CNCC(O)c1ccc(O)c(O)c1 (stereo not drawn) [EPINEPHRINE]	389
Brc1c(NC2=NCCN2)ccc2nccnc12 [UK 14,304]	43.6
COC(=O)[C@@H]1[C@H]2C[C@H]3c4[nH]c5ccccc5c4CCN3C[C@@H]2CC[C@@H]1O [yohimbic acid methyl ester]	36.3
